Laboratory results from US20160106107A1, “Compositions and Methods for Treating Microorganism” (priority 2006, published 2016).
Several values for one entry are separate records, joined by “and”; a condition that tells them apart may be missing. Equal entries are not always repeated. Where two headings read alike, the source gives them in different places.

Assays:
[1] = tested on: dry bean (Phaseolus vulgaris L. cv. Othello) seeds; test: Germination of treated dry bean seeds on King's B agar plates (Othello); assay type: in vivo; details: for SUM of seeds germinated, 10 plates: 50 seeds; for seeds germinated per plate: plates 1-10, 50 seeds in all
[2] = tested on: Frontier (Kabuli Chickpea) seeds
healthy dry bean seed = test: Germination of healthy dry bean seed; assay type: in vivo; details: 1%
[3] = tested on: Plato (Large Green Lentil) seeds
[4] = tested on: dry bean (Phaseolus vulgaris L) seeds, cultivar Othello; test: Germination of dry bean seeds with aqueous seed coating under high bacterial load; assay type: in vivo
Protocol: The efficacy of high valency silver ions produced by oxysilver nitrate was evaluated as a seed treatment on diseased dry bean seeds. The oxysilver nitrate was applied as an aqueous seed coating on the germination of dry bean (Phaseolus vulgaris L).
Seeds were placed on blotters in Petri plates, were soaked in an excess of water for 3 days, then drained on day 4. The 3-day period of excess water created a very high bacterial load′ on the germinating seeds and high disease pressure due to pathogenic, saprophytic and soft-rot bacteria. This disease pressure was so extreme that the germination rates for experiments 2-5 were essentially zero due to being overwhelmed by the microbial growth.

AC Polaris seedlings = test: Emergence of seedlings in the greenhouse (AC Polaris); assay type: in vivo, Phaseolus vulgaris; details: for SUM of seedlings emerged: 20 seeds; for SUM of seedlings emerged / MEAN seedlings emerged per replication: three weeks; for seedlings emerged per replication: greenhouse trial #1, three weeks after planting, five seeds per pot
[5] = tested on: dry bean (Phaseolus vulgaris L. cv. Othello) seedlings; test: Emergence of seedlings in the greenhouse (Othello); assay type: in vivo; details: for seedlings emerged per replication: greenhouse trials #1 and #2, three weeks after planting, five seeds per pot; for MEAN of Trials 1 and 2, seedling emergence / TOTAL of Trials 1 and 2, seedling emergence / SUM of seedlings emerged per trial / MEAN seedlings emerged per replication, per trial: three weeks; for SUM of seedlings emerged per trial / MEAN seedlings emerged per replication, per trial: trial #1 or #2; for SUM of seedlings emerged per trial: 20 seeds
[6] = tested on: dry bean (Phaseolus vulgaris L. cv. AC Polaris) seeds; test: Germination of treated dry bean seeds on King's B agar plates (AC Polaris); assay type: in vivo; details: for SUM of seeds germinated, 10 plates: 50 seeds; for seeds germinated per plate: plates 1-10, 50 seeds in all
[7] = tested on: Myles (Dezi Chickpea) seeds

Substance: oxysilver nitrate [High valency silver]
- seeds germinated out of 50 (Camry (Green Pea) seeds; 0.1%, on blotters for 7-days): 46
- seeds germinated out of 50 (Camry (Green Pea) seeds; 0.1%, on blotters for 14-days): 45
- seeds germinated out of 50 (Camry (Green Pea) seeds; 0.25%, on blotters for 7-days): 48
- seeds germinated out of 50 (Camry (Green Pea) seeds; 0.25%, on blotters for 14-days): 46
- seeds germinated out of 50 (Camry (Green Pea) seeds; 0.5%, on blotters for 7-days): 48
- seeds germinated out of 50 (Camry (Green Pea) seeds; 0.5%, on blotters for 14-days): 48
- seeds germinated out of 50 (Camry (Green Pea) seeds; 1%, on blotters for 7-days): 47
- seeds germinated out of 50 (Camry (Green Pea) seeds; 1%, on blotters for 14-days): 46
- MEAN seeds germinated per plate ([1]; 0.05% in talc): 5
- SUM of seeds germinated, 10 plates ([1]; 0.05% in talc): 50
- seeds germinated per plate ([1]; 0.05% in talc): 5
- MEAN seeds germinated per plate ([1]; 0.05% in water): 5
- SUM of seeds germinated, 10 plates ([1]; 0.05% in water): 50
- seeds germinated per plate ([1]; 0.05% in water): 5
- MEAN seeds germinated per plate ([1]; 0.1% in talc): 4.8
- SUM of seeds germinated, 10 plates ([1]; 0.1% in talc): 48
- seeds germinated per plate ([1]; 0.1% in talc): 5 and 4
- MEAN seeds germinated per plate ([1]; 0.1% in water): 5
- SUM of seeds germinated, 10 plates ([1]; 0.1% in water): 50
- seeds germinated per plate ([1]; 0.1% in water): 5
- seeds germinated out of 50 ([2]; 0.1%, on blotters for 7-days): 40
- seeds germinated out of 50 ([2]; 0.1%, on blotters for 14-days): 45
- seeds germinated out of 50 ([2]; 0.25%, on blotters for 7-days): 45
- seeds germinated out of 50 ([2]; 0.25%, on blotters for 14-days): 41
- seeds germinated out of 50 ([2]; 0.5%, on blotters for 7-days): 48
- seeds germinated out of 50 ([2]; 0.5%, on blotters for 14-days): 48
- seeds germinated out of 50 ([2]; 1%, on blotters for 7-days): 47
- seeds germinated out of 50 ([2]; 1%, on blotters for 14-days): 45
- Day to 50% germination (healthy dry bean seed): 5.0 days
- seeds germinated out of 50 ([3]; 0.1%, on blotters for 7-days): 46
- seeds germinated out of 50 ([3]; 0.1%, on blotters for 14-days): 49
- seeds germinated out of 50 ([3]; 0.25%, on blotters for 7-days): 46
- seeds germinated out of 50 ([3]; 0.25%, on blotters for 14-days): 48
- seeds germinated out of 50 ([3]; 0.5%, on blotters for 7-days): 49
- seeds germinated out of 50 ([3]; 0.5%, on blotters for 14-days): 49
- seeds germinated out of 50 ([3]; 1%, on blotters for 7-days): 42
- seeds germinated out of 50 ([3]; 1%, on blotters for 14-days): 47
- phytotoxicity / effect on germination (words) [4]: no phytotoxic effect on germinating seeds
- phytotoxicity / effect on germination (words) ([4]; listed as high valency silver): no negative effects on germination
- SUM of seedlings emerged (AC Polaris seedlings; 0.05% in talc): 18
- seedlings emerged per replication (AC Polaris seedlings; 0.05% in talc): 4 and 5
- MEAN seedlings emerged per replication (AC Polaris seedlings; 0.05% in talc): 4.5
- SUM of seedlings emerged (AC Polaris seedlings; 0.05% in water): 15
- seedlings emerged per replication (AC Polaris seedlings; 0.05% in water): 4 and 3
- MEAN seedlings emerged per replication (AC Polaris seedlings; 0.05% in water): 3.75
- SUM of seedlings emerged (AC Polaris seedlings; 0.1% in talc): 20
- seedlings emerged per replication (AC Polaris seedlings; 0.1% in talc): 5
- MEAN seedlings emerged per replication (AC Polaris seedlings; 0.1% in talc): 5
- SUM of seedlings emerged (AC Polaris seedlings; 0.1% in water): 16
- seedlings emerged per replication (AC Polaris seedlings; 0.1% in water): 4 and 5 and 3
- MEAN seedlings emerged per replication (AC Polaris seedlings; 0.1% in water): 4
- seedlings emerged per replication ([5]; 0.05% in talc): 4 and 5
- MEAN of Trials 1 and 2, seedling emergence ([5]; 0.05% in talc): 4.625
- TOTAL of Trials 1 and 2, seedling emergence ([5]; 0.05% in talc): 37
- SUM of seedlings emerged per trial ([5]; 0.05% in talc): 18 and 19
- MEAN seedlings emerged per replication, per trial ([5]; 0.05% in talc): 4.5 and 4.75
- seedlings emerged per replication ([5]; 0.05% in water): 4 and 5
- MEAN of Trials 1 and 2, seedling emergence ([5]; 0.05% in water): 4.875
- TOTAL of Trials 1 and 2, seedling emergence ([5]; 0.05% in water): 39
- SUM of seedlings emerged per trial ([5]; 0.05% in water): 19 and 20
- MEAN seedlings emerged per replication, per trial ([5]; 0.05% in water): 4.75 and 5
- seedlings emerged per replication ([5]; 0.1% in talc): 3 and 5 and 4
- MEAN of Trials 1 and 2, seedling emergence ([5]; 0.1% in talc): 4.125
- TOTAL of Trials 1 and 2, seedling emergence ([5]; 0.1% in talc): 33
- SUM of seedlings emerged per trial ([5]; 0.1% in talc): 16 and 17
- MEAN seedlings emerged per replication, per trial ([5]; 0.1% in talc): 4 and 4.25
- seedlings emerged per replication ([5]; 0.1% in water): 4 and 3 and 5
- MEAN of Trials 1 and 2, seedling emergence ([5]; 0.1% in water): 4.25
- TOTAL of Trials 1 and 2, seedling emergence ([5]; 0.1% in water): 34
- SUM of seedlings emerged per trial ([5]; 0.1% in water): 15 and 19
- MEAN seedlings emerged per replication, per trial ([5]; 0.1% in water): 3.75 and 4.75
- MEAN seeds germinated per plate ([6]; 0.05% in talc): 4.6
- SUM of seeds germinated, 10 plates ([6]; 0.05% in talc): 46
- seeds germinated per plate ([6]; 0.05% in talc): 5 and 4 and 3
- MEAN seeds germinated per plate ([6]; 0.05% in water): 3.8
- SUM of seeds germinated, 10 plates ([6]; 0.05% in water): 38
- MEAN seeds germinated per plate ([6]; 0.1% in talc): 4.6
- SUM of seeds germinated, 10 plates ([6]; 0.1% in talc): 46
- seeds germinated per plate ([6]; 0.1% in talc): 5 and 4
- MEAN seeds germinated per plate ([6]; 0.1% in water): 3.8
- SUM of seeds germinated, 10 plates ([6]; 0.1% in water): 38
- seeds germinated out of 50 (Orford (Soybean) seeds; 0.1%, on blotters for 7-days): 7
- seeds germinated out of 50 (Orford (Soybean) seeds; 0.1%, on blotters for 14-days): 25
- seeds germinated out of 50 (Orford (Soybean) seeds; 0.25%, on blotters for 7-days): 8
- seeds germinated out of 50 (Orford (Soybean) seeds; 0.25%, on blotters for 14-days): 27
- seeds germinated out of 50 (Orford (Soybean) seeds; 0.5%, on blotters for 7-days): 10
- seeds germinated out of 50 (Orford (Soybean) seeds; 0.5%, on blotters for 14-days): 29
- seeds germinated out of 50 (Orford (Soybean) seeds; 1%, on blotters for 7-days): 19
- seeds germinated out of 50 (Orford (Soybean) seeds; 1%, on blotters for 14-days): 32
- effect on germination (Orford (Soybean) seeds; any pulse seed in this experiment (pea, chickpea, lentil, soybean)): no negative effects on germination of any pulse seed
- seeds germinated out of 50 ([7]; 0.1%, on blotters for 7-days): 47
- seeds germinated out of 50 ([7]; 0.1%, on blotters for 14-days): 44
- seeds germinated out of 50 ([7]; 0.25%, on blotters for 7-days): 45
- seeds germinated out of 50 ([7]; 0.25%, on blotters for 14-days): 46
- seeds germinated out of 50 ([7]; 0.5%, on blotters for 7-days): 44
- seeds germinated out of 50 ([7]; 0.5%, on blotters for 14-days): 47
- seeds germinated out of 50 ([7]; 1%, on blotters for 7-days): 45
- seeds germinated out of 50 ([7]; 1%, on blotters for 14-days): 45
